Data on one compound can be found in patent publication US10294236B2, “Compounds as rearranged during transfection (RET) inhibitors” (GLAXOSMITHKLINE INTELLECTUAL PROPERTY DEVELOPMENT LIMITED, priority 2014, dated 2019).

Chains of the proteins cited; added tags and fusions are not shown. Residues count along the entry.
UniProt P07949, 658-1114 limits assumed: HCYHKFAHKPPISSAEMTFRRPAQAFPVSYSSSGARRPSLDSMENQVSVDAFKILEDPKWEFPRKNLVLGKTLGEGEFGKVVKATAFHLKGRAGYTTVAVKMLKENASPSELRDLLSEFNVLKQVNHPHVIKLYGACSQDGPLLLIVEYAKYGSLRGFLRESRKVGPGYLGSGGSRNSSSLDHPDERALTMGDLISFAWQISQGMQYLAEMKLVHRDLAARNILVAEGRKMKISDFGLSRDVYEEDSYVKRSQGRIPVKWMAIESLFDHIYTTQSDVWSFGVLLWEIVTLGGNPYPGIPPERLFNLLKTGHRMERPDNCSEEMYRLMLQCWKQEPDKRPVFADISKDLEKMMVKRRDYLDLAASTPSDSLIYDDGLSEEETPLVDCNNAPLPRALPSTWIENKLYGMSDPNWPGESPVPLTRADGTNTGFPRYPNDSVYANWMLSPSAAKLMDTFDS

The target of this assay is Human RET kinase cytoplasmic domain (Homo sapiens, UniProt P07949). Briefly: RET kinase enzymatic assay. Particulars: read-out: RET IC50.

The term IC50 denotes the concentration at which inhibition is half-maximal. For the compound `CCOc1cc(-c2ccc(NC(=O)Nc3ccc(CC4(C)COC4)c(C(F)(F)F)c3)c(F)c2)c[nH]c1=O`, the IC50 was less than 100 nM.
